This is an account of results in patent US7348140B1, “Clinical indications for genotyping polymorphic variants of G-protein coupled receptors” (Acadia Pharmaceuticals, Inc., priority 2001, dated 2008).

Protein sequences, listed by entry. Tags and fused reporters are not part of them.
UniProt P41595, whole entry: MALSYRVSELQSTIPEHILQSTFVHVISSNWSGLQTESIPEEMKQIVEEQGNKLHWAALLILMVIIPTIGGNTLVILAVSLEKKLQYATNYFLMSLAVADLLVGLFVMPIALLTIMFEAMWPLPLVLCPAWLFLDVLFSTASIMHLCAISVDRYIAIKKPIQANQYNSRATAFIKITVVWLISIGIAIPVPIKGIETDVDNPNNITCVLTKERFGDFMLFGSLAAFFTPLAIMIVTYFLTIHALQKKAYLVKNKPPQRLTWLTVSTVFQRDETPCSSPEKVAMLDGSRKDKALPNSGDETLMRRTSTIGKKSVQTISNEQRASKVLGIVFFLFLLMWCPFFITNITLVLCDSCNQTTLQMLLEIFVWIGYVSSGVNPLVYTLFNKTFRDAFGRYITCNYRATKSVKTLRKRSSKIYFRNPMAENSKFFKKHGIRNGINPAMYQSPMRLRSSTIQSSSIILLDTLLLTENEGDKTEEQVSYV

For the assay, the target named is serotonin 2B receptor (Arginine 388) (Homo sapiens, UniProt P41595). As to the kind of experiment: cell-based.

Molecules are shown by their SMILES. Structures can show the parent of a compound that is named as a salt.

A word on the EC50: it is the concentration needed to bring the measured effect to its halfway point. A lower EC50 goes with greater potency. `Clc1cccc(N2CCNCC2)c1` [mCPP, 1-(3-CHLOROPHENYL)PIPERAZINE DIHYDROCHLORIDE] had a 50% effective concentration (EC50) of 14.5 nM.
